Reference: patent US6488909B1, “Chelating agents as well as their tricarbonyl complexes with technetium and rhenium” (Schering Aktiengesellschaft, priority 1998, dated 2002)

Test: Stability study: histidine challenge, radiochemical composition by HPLC on RP18 column
Format: physicochemical
Conditions: 20 mg of histidine, stirred 1 hour at 50° C.
Experimental: The complexes are stable, so that at room temperature, no exchange of chelating agents for histidine is carried out. The. chelates and tricarbonyl-Tc-99m and Re-tricarbonyl complexes that are described in this invention are thus clearly better suited for diagnostic and therapeutic purposes than the previously known systems. A special advantage of the compounds according to the invention consists in the fact that their syntheses can be directed without using sulfur protective groups. This makes their synthesis very simple, and in addition, such compounds that are described according to the invention in particular offer the advantage that after radiochemical labeling, no further foreign molecules are contained in the solutions that are to be administered intravenously for radiodiagnosis or radiotherapy. Such foreign molecules frequently disrupt the biodistribution of the radiopharmaceutical agent and can adversely affect the diagnostic information content of the SPECT imaging. In addition, the labelings on such ligands or their coupling products can be performed on substances that accumulate selectively on diseased tissues under very mild conditions. […]

For “Tc-99m-Tricarbonyl Complex of N,N-bis-(2-methylthioethyl)-glycine-N′-propylamide [Example 9b]”, the “radiochemical composition (HPLC chromatogram) after histidine challenge” value was “unchanged”.
